Measured values: patent US6358492B1, “Dopamine transporter imaging ligand” (Research Triangle Institute, priority 1997, dated 2002)

By UniProt entry, the sequences of proteins in these tests, tags left out.
UniProt P23977, whole entry: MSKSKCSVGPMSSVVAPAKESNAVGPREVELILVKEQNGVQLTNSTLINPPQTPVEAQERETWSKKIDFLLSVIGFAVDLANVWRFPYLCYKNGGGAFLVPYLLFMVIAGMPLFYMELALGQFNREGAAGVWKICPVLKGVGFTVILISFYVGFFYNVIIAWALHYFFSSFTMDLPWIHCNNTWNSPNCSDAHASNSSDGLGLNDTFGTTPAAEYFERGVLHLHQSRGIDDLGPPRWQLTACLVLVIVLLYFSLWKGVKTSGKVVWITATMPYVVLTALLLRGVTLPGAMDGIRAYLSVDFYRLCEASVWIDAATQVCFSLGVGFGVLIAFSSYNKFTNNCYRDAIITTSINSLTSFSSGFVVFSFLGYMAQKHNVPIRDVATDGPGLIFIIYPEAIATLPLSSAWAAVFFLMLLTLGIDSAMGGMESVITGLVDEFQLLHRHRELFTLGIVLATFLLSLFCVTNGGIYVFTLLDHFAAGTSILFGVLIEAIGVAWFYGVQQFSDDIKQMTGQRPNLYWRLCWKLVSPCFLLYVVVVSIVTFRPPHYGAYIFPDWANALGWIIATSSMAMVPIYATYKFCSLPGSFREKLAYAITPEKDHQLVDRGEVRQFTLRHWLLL

Legend:
serotonin transporter = conditions: ratio of IC50 values
[1] = tested on: norepinephrine transporter; assay: Inhibition of 0.5 nM [3H]nisoxetine binding to the norepinephrine transporter; conditions: ratio of IC50 values
dopamine transporter = dopamine transporter (UniProt P23977); conditions: read-out: IC50 DA [3H]WIN 35,428; 0.5 nM [3H]WIN 35,428; mean ± standard error where given

Cc1noc([C@H]2[C@@H](c3ccccc3)C[C@@H]3CC[C@H]2N3C)n1
5-HT/DA Ratio (serotonin transporter): 79
NE/DA Ratio [1]: 38
IC50 (dopamine transporter): 100 nM
